Test results reported in publication PMC140036 (BMC Pharmacology, 2003).

By UniProt entry, the sequences of proteins in these tests, tags left out.
UniProt P42866, whole entry: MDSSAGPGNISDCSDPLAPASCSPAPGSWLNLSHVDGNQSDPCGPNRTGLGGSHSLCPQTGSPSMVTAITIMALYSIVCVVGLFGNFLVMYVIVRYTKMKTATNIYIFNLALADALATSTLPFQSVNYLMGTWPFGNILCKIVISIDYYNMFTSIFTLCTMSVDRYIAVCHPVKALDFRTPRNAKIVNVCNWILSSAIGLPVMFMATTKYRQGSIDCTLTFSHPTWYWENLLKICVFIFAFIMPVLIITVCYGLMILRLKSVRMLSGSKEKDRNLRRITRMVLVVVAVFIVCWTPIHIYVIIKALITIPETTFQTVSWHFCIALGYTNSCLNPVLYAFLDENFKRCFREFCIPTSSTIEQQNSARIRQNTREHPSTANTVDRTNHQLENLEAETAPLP

Target: mouse μ opioid receptor (Mus musculus, UniProt P42866)
Test: cell-based
Conditions: HEK293, read-out: Max Inhibition

## CN1CC[C@]23c4c5ccc(O)c4O[C@H]2C(=O)CC[C@H]3[C@H]1C5 [Hydromorphone]
  Emax: 67 ± 4%
